Measured values: US20260384421A1, “NOVEL COMPOUNDS THAT CAN BE USED AS THERAPEUTIC AGENTS” (published 2026)

Columns and labels:
[1] = system: HCT-116 cells; assay: combination treatment activity assay with syrosingopine on HCT-116 cells; conditions: compound 10 nM + syrosingopine 10 μM, 2 days
Procedure: The synergistic or additive activity of a compound falling under general formula (I) was investigated in a combination treatment with the MCT1/MCT4 inhibitor syrosingopine (TargetMol, #TN2252) in a viability assay on MDA-MB-231 cells cultured in D-Glucose-containing RPMI 1640 medium (Fisher Scientific, Gibco™ #72400) supplemented with 10% fetal bovine serum (Fisher Scientific, Gibco™ #A31608) and on HCT-116 cells cultured as described above. The viability assay was performed according to the protocol as described above using alamarBlue® (Bio-Rad Serotec GmbH, BUF012B). To this end, according cells were seeded into 96-well plates (CORNING, #3598) suitable for fluorescence assays at a cell number of 7'000 cells per well for MDA-MB-231 and 7'000 cells per well for HCT-116, and incubated over night at 37 °C and 5% CO2. Then, in a volume of 90 μL medium per well the cells were treated with compounds at a final concentration of 10 nM for the compound of formula (I) and 10 μM for syrosingopine by adding 10 μL per well of a 10× compound working solution or the empty carrier DMSO as control. […] Relative viability values were calculated from the fluorescence intensities as described above. […]

[2] = system: SK-MEL-5 melanoma cells; assay: treatment-sensitization activity assay with PLX-4720 on SK-MEL-5 cells; conditions: combination with PLX-4720 (10 μM), SK-MEL-5 cells; additional decrease in relative viability as compared to single treatment with PLX-4720
Text: Sensitization through a compound to other treatments can be assessed by investigating the growth behaviour of cancer cells being not or only poorly responsive to said other treatments in the presence of the sensitizing compound in a combination treatment. The sensitization activity of a compound falling under general formula (I) was investigated in a combination treatment with the B-Raf-V600E inhibitor PLX-4720 (MedChemExpress, #HY-51424) in a viability assay on PLX-4720-poorly responsive SK-MEL-5 melanoma cells harbouring a BRAF V600E mutation. SK-MEL-5 cells, obtainable from the American Type Culture Collection (ATCC) under the accession number ATCC-HTB-70, were cultivated in EMEM medium (ATCC, #30-2003) containing 10% fetal bovine serum (Fisher Scientific, Gibco™ #A31608) at 37 °C and 5% CO2. The viability assay was performed according to the protocol as described above using alamarBlue® (Bio-Rad Serotec GmbH, BUF012B). To this end, SK-MEL-5 cells were seeded into 96-well plates (CORNING #3598) suitable for fluorescence assays at a cell number of 4'000 cells per well containing 10 μL per well of 10× compound working solutions or the empty carrier DMSO as control. The cells were treated with compounds at final concentrations of 1 μM for the compound of formula (I) and 10UM for PLX-4720. […] Relative viability values were calculated from the fluorescence intensities as described above. […]

O=C(c1ccc(Oc2ccc(C3CCC4(CC3)OCCO4)cc2CO)cc1)N1CCN(Cc2ccc(Cl)cc2)CC1
Activity as treatment enhancer (additional viability decrease as compared to single treatment with syrosingopine) [1]: viability decrease >25% | Activity as treatment enhancer: viability decrease [2]: viability decrease >50%
